A short description of the data set: Ex vivo skin permeation, static Franz-type diffusion cells, HPLC-DAD relative quantification. In kind it is in vitro ADME, porcine. The settings on record: for Mean Flux Based on AUC/cm^2/h (relative mass flux): infinite dose 500 mg, 32 °C, n = 9 cells. How it is done: Skin permeation studies were performed using dermatomed porcine ear skin and static Franz-type diffusion cells (PermeGear, Hellertown, PA, USA, permeation area of 0.95 cm^2, acceptor volume of 2 mL). Porcine ears were obtained after sacrifice from a local abattoir (Johann Gantner GmbH, Gemeinde Hollabrunn, Austria, male and female animals at six months of age). The ears were cleaned under running water and were dried and stored at −18 °C until use.
Fresh vehicles were prepared 48 h before the start of the experiments. Skin from the dorsal side of the ears was cut to a thickness of 400 µm with a dermatome (Aesculap GA 630 DBP, Aesculap AG, Tuttlingen, Germany). Hair was removed with scissors. The skin was cut into 1 × 1 cm pieces and was clamped between donor and acceptor chamber. The acceptor medium consisted of a mixture of phosphate-buffered saline and ethanol (60:40% v/v) to ensure sink conditions. The phosphate-buffered saline was prepared as described in the Pharmacopoeia Europaea (0.012 M, pH of 7.4, 0.238% w/w sodium monohydrogen phosphate, 0.019% w/w potassium dihydrogen phosphate, and 0.8% w/w sodium chloride). Before starting the experiments, the transepidermal water loss (TEWL) was measured with a closed-chamber device and a coupling adapter (Aquaflux® AF200, Biox Systems Ltd., London, UK) to ensure consistent skin quality and barrier function.
The ointments were applied to the donor chambers at infinite dose conditions (500 mg of formulation). The donor compartment and sampling arm were occluded with Parafilm to prevent evaporation of sample or acceptor fluid. The diffusion cells were kept in a water bath at 32 °C to simulate skin surface temperature. Magnetic stirring was employed to avoid concentration layers within the acceptor fluid. Cells were regularly checked for air bubbles. After predefined intervals (2, 4, 6, 8, 24, 28, and 32 h), an aliquot of 200 μL of acceptor medium was taken for analysis and was replaced with fresh acceptor medium at 32 °C.
The most suitable formulation was chosen for analysis of permeation potential as well as the commercial product Picea-Salbe®. Three individual permeation experiments with n = 3 cells were performed for formulations and controls. The final results depict mean values ± SDs of n = 9 cells per formulation. As controls, the respective ointment bases without PSB as well as the plain acceptor medium alone were used.
For the analysis of samples drawn from Franz diffusion cells, a Shimadzu HPLC instrumentation with diode array detection (SHIMADZU Autosampler SIL-20AC HAT, SHIMADZU Column Oven CTO-20AC, SHIMADZU Communications Bus Module CBM-20A, SHIMADZU Degasser DGU-20A5, SHIMADZU Diode Array Detector SPD-M20A, SHIMADZU Liquid Chromatograph LC-20AD, SHIMADZU LabSolutions Software 5.81, Shimadzu, Kyoto, Japan) was used. A reversed-phase C18 column (LiChrospher 100 RP18e, 5 μm, 250 × 4 mm, Merck KGaA, Darmstadt, Germany) was employed as stationary phase. Double-distilled water + 0.1% formic acid (solvent A) and acetonitrile + 0.1% formic acid (solvent B) served as mobile phase, and gradient elution at 1 mL/min flow rate was applied as follows: 15% solvent B rose to 95% solvent B within 45 min (rate of 1.77%/min) followed by 5 min washing step at 98% solvent B and re-equilibration for 10 min with 15% solvent B. Samples drawn from Franz diffusion cells were centrifuged, and 10 μL were injected into the system. PSB samples were dissolved in acetone to a final concentration of 5 mg/mL, and 2 μL were analyzed. […]

For Pinoresinol, the “total permeated amounts (AUC), comparison of the two ointments” value (after 32 h, lard ointment versus wool wax/castor oil ointment) is reported as “significantly higher total permeated amounts were observed from the lard ointment”. In addition, for the setting “mean flux from lard versus wool wax/castor oil”, the “Enhancement Factor” value is on record as 2.8. Further, the “Mean Flux Based on AUC/cm^2/h (relative mass flux)” value worked out at 243.842 ± 93.731 AUC/cm^2/h (vehicle lard (Picea-Salbe, 20% spruce balm)) and 87.258 ± 27.553 AUC/cm^2/h (vehicle wool wax/castor oil with 20% PSB (batch PSB5)). Moreover, the “time after which detectable in acceptor samples” value (wool wax/castor oil and Picea-Salbe ointments) worked out at 8 h.

For the origin of these results see paper PMC10302299, “Spruce Balm-Based Semisolid Vehicles for Wound Healing: Effect of Excipients on Rheological Properties and Ex Vivo Skin Permeation” (Pharmaceutics, 2023).
